The text below walks through data of US20140100156A1 (SANOFI, priority 2012, published 2014).

Chains of the proteins cited; added tags and fusions are not shown. Residues count along the entry.
UniProt P43220, 24-463: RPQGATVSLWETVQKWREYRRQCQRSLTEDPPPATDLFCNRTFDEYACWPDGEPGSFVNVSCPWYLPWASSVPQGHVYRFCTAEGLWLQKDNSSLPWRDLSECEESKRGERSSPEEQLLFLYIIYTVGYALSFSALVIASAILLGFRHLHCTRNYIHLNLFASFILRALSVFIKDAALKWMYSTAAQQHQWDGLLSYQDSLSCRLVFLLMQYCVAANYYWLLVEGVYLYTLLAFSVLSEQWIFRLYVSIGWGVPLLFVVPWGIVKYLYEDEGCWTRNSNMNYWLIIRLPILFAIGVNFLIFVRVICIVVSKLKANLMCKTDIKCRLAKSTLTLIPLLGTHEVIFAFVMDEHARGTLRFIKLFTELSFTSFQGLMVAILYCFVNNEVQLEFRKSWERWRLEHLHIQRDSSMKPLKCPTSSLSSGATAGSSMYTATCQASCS
UniProt P47871, 26-477: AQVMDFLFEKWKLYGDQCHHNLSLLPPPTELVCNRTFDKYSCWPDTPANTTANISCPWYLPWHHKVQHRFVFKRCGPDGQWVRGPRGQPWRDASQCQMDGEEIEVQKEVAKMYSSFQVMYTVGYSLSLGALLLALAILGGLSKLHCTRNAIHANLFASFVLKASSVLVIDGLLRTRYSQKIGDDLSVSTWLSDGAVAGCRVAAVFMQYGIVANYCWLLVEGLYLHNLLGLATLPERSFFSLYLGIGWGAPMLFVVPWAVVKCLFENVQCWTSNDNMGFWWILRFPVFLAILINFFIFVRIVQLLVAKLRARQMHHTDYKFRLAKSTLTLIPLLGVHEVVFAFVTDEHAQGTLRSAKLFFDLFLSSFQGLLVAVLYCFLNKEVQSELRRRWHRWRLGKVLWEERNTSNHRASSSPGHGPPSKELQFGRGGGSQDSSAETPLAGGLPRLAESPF

Assay [1] deals with T1, human GLP-1 receptor (Homo sapiens, UniProt P43220).
T1 construct: expressed in transfected cells; host or cells: HEK-293
Description: cAMP response (HTRF) of HEK-293 cells stably expressing human GLP-1 receptor. Type of assay: cell-based. The conditions noted are these: Table 5; cAMP, HEK-293; read-out: EC50 hGLP-1R. (In general: TR-FRET usually uses a lanthanide donor and a delayed reading to cut background.)

For assay [2], the target named is T2, human glucagon receptor (Homo sapiens, UniProt P47871).
T2 construct: expressed in transfected cells; host or cells: HEK-293
Briefly: cAMP response (HTRF) of HEK-293 cells stably expressing human glucagon receptor. It counts as cell-based. The conditions noted are these: Table 5; cAMP, HEK-293; read-out: EC50 hGlucagon-R.

On to `CCCCCCCCCCCCCCCC(=O)N[C@@H](CCC(=O)NCCC[C@H](NC(=O)[C@H](CCC(N)=O)NC(=O)[C@H](CCCCN)NC(=O)[C@H](CO)NC(=O)[C@H](CC(C)C)NC(=O)[C@H](CC(=O)O)NC(=O)[C@H](CO)NC(=O)[C@@H](NC(=O)[C@H](Cc1ccccc1)NC(=O)[C@@H](NC(=O)CNC(=O)[C@H](CCC(N)=O)NC(=O)[C@@H](CO)NC(=O)[C@@H](N)Cc1c[nH]cn1)[C@@H](C)O)[C@@H](C)O)C(=O)N[C@@H](CCC(=O)O)C(=O)N[C@@H](CO)C(=O)N[C@@H](CCCNC(=N)N)C(=O)N[C@@H](CCCNC(=N)N)C(=O)N[C@@H](C)C(=O)N[C@@H](CCC(N)=O)C(=O)N[C@@H](CC(=O)O)C(=O)N[C@@H](Cc1ccccc1)C(=O)N[C@H](C(=O)N[C@@H](CCC(=O)O)C(=O)N[C@@H](Cc1c[nH]c2ccccc12)C(=O)N[C@@H](CC(C)C)C(=O)N[C@@H](CCCCN)C(=O)N[C@@H](C)C(=O)NCC(=O)NCC(=O)N1CCC[C@H]1C(=O)N[C@@H](CO)C(=O)N[C@@H](CO)C(=O)NCC(=O)N[C@@H](C)C(=O)N1CCC[C@H]1C(=O)N1CCC[C@H]1C(=O)N1CCC[C@H]1C(=O)N[C@@H](CO)C(N)=O)[C@@H](C)CC)C(=O)O` [compound 71], for which the EC50 was 20.5 pM in assay [1] and 5.6 pM in assay [2].
For the compound `CCCCCCCCCCCCCCCC(=O)N[C@@H](CCC(=O)NCCCC[C@H](NC(=O)[C@H](CCC(N)=O)NC(=O)[C@H](CCCCN)NC(=O)[C@H](CO)NC(=O)[C@H](CC(C)C)NC(=O)[C@H](CC(=O)O)NC(=O)[C@H](CO)NC(=O)[C@@H](NC(=O)[C@H](Cc1ccccc1)NC(=O)[C@@H](NC(=O)CNC(=O)[C@H](CCC(N)=O)NC(=O)[C@@H](CO)NC(=O)[C@@H](N)Cc1c[nH]cn1)[C@@H](C)O)[C@@H](C)O)C(=O)N[C@@H](CC(=O)O)C(=O)N[C@@H](CO)C(=O)N[C@@H](CCCNC(=N)N)C(=O)N[C@@H](CCCNC(=N)N)C(=O)N[C@@H](C)C(=O)N[C@@H](CCC(N)=O)C(=O)N[C@@H](CC(=O)O)C(=O)N[C@@H](Cc1ccccc1)C(=O)N[C@H](C(=O)N[C@@H](CCC(=O)O)C(=O)N[C@@H](Cc1c[nH]c2ccccc12)C(=O)N[C@@H](CC(C)C)C(=O)N[C@@H](CCCCN)C(=O)N[C@@H](CC(N)=O)C(=O)N[C@H](C)C(=O)NCC(=O)N1CCC[C@H]1C(=O)N[C@@H](CO)C(=O)N[C@@H](CO)C(=O)NCC(=O)N[C@@H](C)C(=O)N1CCC[C@H]1C(=O)N1CCC[C@H]1C(=O)N1CCC[C@H]1C(=O)N[C@@H](CO)C(N)=O)[C@@H](C)CC)C(=O)O` [compound 94], the EC50 in assay [1] was found to be 5.2 pM; in assay [2], 2.1 pM.
On the same counts, the results for `CCCCCCCCCCCCCCCC(=O)N[C@@H](CCC(=O)NCCCC[C@H](NC(=O)[C@H](CCC(N)=O)NC(=O)[C@H](CCCCN)NC(=O)[C@H](CO)NC(=O)[C@H](CC(C)C)NC(=O)[C@H](CC(=O)O)NC(=O)[C@H](CO)NC(=O)[C@@H](NC(=O)[C@H](Cc1ccccc1)NC(=O)[C@@H](NC(=O)CNC(=O)[C@H](CCC(N)=O)NC(=O)[C@@H](CO)NC(=O)[C@@H](N)Cc1c[nH]cn1)[C@@H](C)O)[C@@H](C)O)C(=O)N[C@@H](CCC(=O)O)C(=O)N[C@@H](CCC(=O)O)C(=O)N[C@@H](CCCCN)C(=O)N[C@@H](CCCCN)C(=O)N[C@@H](C)C(=O)N[C@@H](CCCCN)C(=O)N[C@@H](CC(C)C)C(=O)N[C@@H](Cc1ccccc1)C(=O)N[C@H](C(=O)N[C@@H](CCC(=O)O)C(=O)N[C@@H](Cc1c[nH]c2ccccc12)C(=O)N[C@@H](CC(C)C)C(=O)N[C@@H](CCCCN)C(=O)N[C@@H](C)C(=O)NCC(=O)NCC(=O)N1CCC[C@H]1C(=O)N[C@@H](CO)C(=O)N[C@@H](CO)C(=O)NCC(=O)N[C@@H](C)C(=O)N1CCC[C@H]1C(=O)N1CCC[C@H]1C(=O)N1CCC[C@H]1C(=O)N[C@@H](CO)C(N)=O)[C@@H](C)CC)C(=O)O` [compound 23] are 5.6 pM and 126 pM.
Regarding `CCCCCCCCCCCCCCCC(=O)N[C@@H](CCC(=O)NCCCC[C@H](NC(=O)[C@H](CCC(N)=O)NC(=O)[C@H](CCCCN)NC(=O)[C@H](CO)NC(=O)[C@H](CC(C)C)NC(=O)[C@H](CC(=O)O)NC(=O)[C@H](CO)NC(=O)[C@@H](NC(=O)[C@H](Cc1ccccc1)NC(=O)[C@@H](NC(=O)CNC(=O)[C@H](CCC(N)=O)NC(=O)[C@@H](CO)NC(=O)[C@@H](N)Cc1c[nH]cn1)[C@@H](C)O)[C@@H](C)O)C(=O)N[C@@H](CC(=O)O)C(=O)N[C@@H](CO)C(=O)N[C@@H](CCCNC(=N)N)C(=O)N[C@@H](CCCNC(=N)N)C(=O)N[C@@H](C)C(=O)N[C@@H](CCC(N)=O)C(=O)N[C@@H](CC(=O)O)C(=O)N[C@@H](Cc1ccccc1)C(=O)N[C@H](C(=O)N[C@@H](CCC(=O)O)C(=O)N[C@@H](Cc1c[nH]c2ccccc12)C(=O)N[C@@H](CC(C)C)C(=O)N[C@@H](CCCCN)C(=O)N[C@@H](CC(N)=O)C(=O)NCC(=O)NCC(=O)N1CCC[C@H]1C(=O)N[C@@H](CO)C(=O)N[C@@H](CO)C(=O)NCC(=O)N[C@@H](C)C(=O)N1CCC[C@H]1C(=O)N1CCC[C@H]1C(=O)N1CCC[C@H]1C(=O)N[C@@H](CO)C(=O)N1CCOCC1)[C@@H](C)CC)C(=O)O` [compound 102], the EC50 in assay [1] came to 7.2 pM; in assay [2], 1.1 pM.
Regarding `CCCCCCCCCCCCCCCC(=O)N[C@@H](CCC(=O)NCCCC[C@H](NC(=O)[C@H](CCC(N)=O)NC(=O)[C@H](CCCCN)NC(=O)[C@H](CO)NC(=O)[C@H](CC(C)C)NC(=O)[C@H](CC(=O)O)NC(=O)[C@H](CO)NC(=O)[C@@H](NC(=O)[C@H](Cc1ccccc1)NC(=O)[C@@H](NC(=O)CNC(=O)[C@H](CCC(N)=O)NC(=O)[C@@H](CO)NC(=O)[C@@H](N)Cc1c[nH]cn1)[C@@H](C)O)[C@@H](C)O)C(=O)N[C@@H](CC(=O)O)C(=O)N[C@@H](CO)C(=O)N[C@@H](CCCNC(=N)N)C(=O)N[C@@H](CCCNC(=N)N)C(=O)N[C@@H](C)C(=O)N[C@@H](CCC(N)=O)C(=O)N[C@@H](CC(=O)O)C(=O)N[C@@H](Cc1ccccc1)C(=O)N[C@H](C(=O)N[C@@H](CCC(=O)O)C(=O)N[C@@H](Cc1c[nH]c2ccccc12)C(=O)N[C@@H](CC(C)C)C(=O)N[C@@H](CCCCN)C(=O)N[C@@H](C)C(=O)NCC(=O)NCC(=O)N1CCC[C@H]1C(=O)N[C@@H](CO)C(=O)N[C@@H](CO)C(=O)NCC(=O)N[C@@H](C)C(=O)N1CCC[C@H]1C(=O)N1CCC[C@H]1C(=O)N1CCC[C@H]1C(=O)N[C@@H](CO)C(N)=O)[C@@H](C)CC)C(=O)O` [compound 74], the EC50 was found to be 4.2 pM in assay [1] and 1.3 pM in assay [2].
Turning to `CCCCCCCCCCCCCCCC(=O)N[C@@H](CCC(=O)NCCCC[C@H](NC(=O)[C@H](CCC(N)=O)NC(=O)[C@H](CCCCN)NC(=O)[C@H](CO)NC(=O)[C@H](CC(C)C)NC(=O)[C@H](CC(=O)O)NC(=O)[C@H](CO)NC(=O)[C@@H](NC(=O)[C@H](Cc1ccccc1)NC(=O)[C@@H](NC(=O)CNC(=O)[C@H](CCC(N)=O)NC(=O)C(C)(C)NC(=O)[C@@H](N)Cc1c[nH]cn1)[C@@H](C)O)[C@@H](C)O)C(=O)N[C@@H](CC(=O)O)C(=O)N[C@@H](CO)C(=O)N[C@@H](CCCNC(=N)N)C(=O)N[C@@H](CCCNC(=N)N)C(=O)N[C@@H](C)C(=O)N[C@@H](CCC(N)=O)C(=O)N[C@@H](CC(=O)O)C(=O)N[C@@H](Cc1ccccc1)C(=O)N[C@H](C(=O)N[C@@H](CCC(=O)O)C(=O)N[C@@H](Cc1c[nH]c2ccccc12)C(=O)N[C@@H](CC(C)C)C(=O)N[C@@H](CCCCN)C(=O)N[C@@H](CC(N)=O)C(=O)NCC(=O)NCC(=O)N1CCC[C@H]1C(=O)N[C@@H](CO)C(=O)N[C@@H](CO)C(=O)NCC(=O)N[C@@H](C)C(=O)N1CCC[C@H]1C(=O)N1CCC[C@H]1C(=O)N1CCC[C@H]1C(=O)N[C@@H](CO)C(N)=O)[C@@H](C)CC)C(=O)O` [compound 115], the EC50 came to 2.4 pM in assay [1] and 1.9 pM in assay [2].
On to `CCCCCCCCCCCCCCCC(=O)N[C@@H](CCC(=O)NCCCC[C@H](NC(=O)[C@H](CCC(N)=O)NC(=O)[C@H](CCCCN)NC(=O)[C@H](CO)NC(=O)[C@H](CC(C)C)NC(=O)[C@H](CC(=O)O)NC(=O)[C@H](CO)NC(=O)[C@@H](NC(=O)[C@H](Cc1ccccc1)NC(=O)[C@@H](NC(=O)CNC(=O)[C@H](CCC(N)=O)NC(=O)[C@@H](CO)NC(=O)[C@@H](N)Cc1c[nH]cn1)[C@@H](C)O)[C@@H](C)O)C(=O)N[C@@H](CC(=O)O)C(=O)N[C@@H](CO)C(=O)N[C@@H](CCCNC(=N)N)C(=O)N[C@@H](CCCNC(=N)N)C(=O)N[C@@H](C)C(=O)N[C@@H](CCC(N)=O)C(=O)N[C@@H](CC(=O)O)C(=O)N[C@@H](Cc1ccccc1)C(=O)N[C@H](C(=O)N[C@@H](CCC(=O)O)C(=O)N[C@@H](Cc1c[nH]c2ccccc12)C(=O)N[C@@H](CC(C)C)C(=O)N[C@@H](CCCCN)C(=O)N[C@@H](CC(N)=O)C(=O)NCC(=O)NCC(=O)N1CCC[C@H]1C(=O)N[C@@H](CO)C(=O)N[C@@H](CO)C(=O)NCC(=O)N[C@@H](C)C(=O)N1CCC[C@H]1C(=O)N1CCC[C@H]1C(=O)N1CCC[C@H]1C(=O)N[C@@H](CO)C(=O)NCCOCCOCCOCCOCCOCCOCCOCCOCCOCCOCCOCCOCCOCCOCCOCCOCCOCCOCCOCCOCCOCCOCCOCCOCCC(=O)O)[C@@H](C)CC)C(=O)O` [compound 105], for which the 50% effective concentration (EC50) in assay [1] is 7.9 pM; in assay [2] it was 1 pM.
For the compound `CCCCCCCCCCCCCCCCCC(=O)N[C@@H](CCC(=O)NCCCC[C@H](NC(=O)[C@H](CCC(N)=O)NC(=O)[C@H](CCCCN)NC(=O)[C@H](CO)NC(=O)[C@H](CC(C)C)NC(=O)[C@H](CC(=O)O)NC(=O)[C@H](CO)NC(=O)[C@@H](NC(=O)[C@H](Cc1ccccc1)NC(=O)[C@@H](NC(=O)CNC(=O)[C@H](CCC(N)=O)NC(=O)[C@@H](CO)NC(=O)[C@@H](N)Cc1c[nH]cn1)[C@@H](C)O)[C@@H](C)O)C(=O)N[C@@H](CCC(=O)O)C(=O)N[C@@H](CO)C(=O)N[C@@H](CCCNC(=N)N)C(=O)N[C@@H](C)C(=O)N[C@@H](C)C(=O)N[C@@H](CCC(N)=O)C(=O)N[C@@H](CC(=O)O)C(=O)N[C@@H](Cc1ccccc1)C(=O)N[C@H](C(=O)N[C@@H](CCC(=O)O)C(=O)N[C@@H](Cc1c[nH]c2ccccc12)C(=O)N[C@@H](CC(C)C)C(=O)N[C@@H](CCCCN)C(=O)N[C@@H](C)C(=O)NCC(=O)NCC(=O)N1CCC[C@H]1C(=O)N[C@@H](CO)C(=O)N[C@@H](CO)C(=O)NCC(=O)N[C@@H](C)C(=O)N1CCC[C@H]1C(=O)N1CCC[C@H]1C(=O)N1CCC[C@H]1C(=O)N[C@@H](CO)C(N)=O)[C@@H](C)CC)C(=O)O` [compound 65], the EC50 in assay [1] came out at 5 pM; in assay [2] it was 5.6 pM.

One may read the EC50 as the concentration giving half of the maximal effect.
